Data from US8168651B2, “Protein kinase modulators” (Cylene Pharmaceuticals, Inc., priority 2008, dated 2012).

Chains of the proteins cited; added tags and fusions are not shown. Residues count along the entry.
UniProt P68400, whole entry: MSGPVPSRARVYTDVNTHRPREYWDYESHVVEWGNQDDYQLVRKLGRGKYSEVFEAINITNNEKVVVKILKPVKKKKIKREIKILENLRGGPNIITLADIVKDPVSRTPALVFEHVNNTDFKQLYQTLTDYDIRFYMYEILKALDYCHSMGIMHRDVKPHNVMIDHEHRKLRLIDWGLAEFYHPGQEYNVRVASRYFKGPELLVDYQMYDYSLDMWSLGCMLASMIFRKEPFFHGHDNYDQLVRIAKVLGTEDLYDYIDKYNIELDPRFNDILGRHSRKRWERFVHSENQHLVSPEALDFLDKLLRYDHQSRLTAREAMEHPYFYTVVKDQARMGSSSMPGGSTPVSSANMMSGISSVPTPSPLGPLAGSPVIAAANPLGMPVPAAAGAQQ
UniProt P30530, 26-894 limits assumed: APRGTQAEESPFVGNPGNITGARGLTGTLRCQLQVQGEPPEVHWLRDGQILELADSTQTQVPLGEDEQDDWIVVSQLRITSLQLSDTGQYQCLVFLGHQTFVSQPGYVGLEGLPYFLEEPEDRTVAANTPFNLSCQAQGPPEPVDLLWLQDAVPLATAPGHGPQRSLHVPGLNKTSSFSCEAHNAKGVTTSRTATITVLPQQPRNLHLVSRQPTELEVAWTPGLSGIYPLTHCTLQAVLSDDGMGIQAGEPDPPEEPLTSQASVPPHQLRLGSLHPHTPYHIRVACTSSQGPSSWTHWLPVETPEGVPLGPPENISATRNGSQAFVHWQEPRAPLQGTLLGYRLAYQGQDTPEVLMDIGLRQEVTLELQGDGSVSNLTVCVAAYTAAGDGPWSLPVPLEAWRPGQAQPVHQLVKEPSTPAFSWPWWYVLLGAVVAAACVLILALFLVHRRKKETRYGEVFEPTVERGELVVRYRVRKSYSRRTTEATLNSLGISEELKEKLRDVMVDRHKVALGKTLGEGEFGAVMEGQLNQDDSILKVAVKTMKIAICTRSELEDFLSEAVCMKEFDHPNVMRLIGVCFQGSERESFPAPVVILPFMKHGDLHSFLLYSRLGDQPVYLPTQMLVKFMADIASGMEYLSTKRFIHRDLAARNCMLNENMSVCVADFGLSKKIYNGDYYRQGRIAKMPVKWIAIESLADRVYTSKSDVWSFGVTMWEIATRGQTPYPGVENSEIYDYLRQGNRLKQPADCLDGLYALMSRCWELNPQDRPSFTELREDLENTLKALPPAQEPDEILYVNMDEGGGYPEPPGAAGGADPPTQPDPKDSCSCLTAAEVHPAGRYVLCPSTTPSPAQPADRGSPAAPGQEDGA
UniProt P06239, 2-509 limits assumed: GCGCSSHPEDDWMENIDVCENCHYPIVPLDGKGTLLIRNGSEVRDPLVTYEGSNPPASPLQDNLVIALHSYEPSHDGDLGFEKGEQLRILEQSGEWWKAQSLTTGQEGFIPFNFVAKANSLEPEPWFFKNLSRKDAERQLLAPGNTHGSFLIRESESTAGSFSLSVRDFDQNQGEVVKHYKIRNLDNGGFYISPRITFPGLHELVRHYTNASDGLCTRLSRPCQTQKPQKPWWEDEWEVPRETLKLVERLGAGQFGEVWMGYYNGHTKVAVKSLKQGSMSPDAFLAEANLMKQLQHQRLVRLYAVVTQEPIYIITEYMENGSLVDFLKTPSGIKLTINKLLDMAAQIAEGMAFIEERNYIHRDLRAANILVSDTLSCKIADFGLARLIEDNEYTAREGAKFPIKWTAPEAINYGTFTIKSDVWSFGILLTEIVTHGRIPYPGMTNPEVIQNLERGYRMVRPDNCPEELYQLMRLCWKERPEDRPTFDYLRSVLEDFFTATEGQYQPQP

Columns and labels:
[1] = target: recombinant human CK2 (Homo sapiens (Human), UniProt P68400); experiment: CK2 assay (cell-free, 33P-ATP filter plate)
[2] = target: each individual kinase of the panel (Homo sapiens, UniProt P30530); experiment: Standardized radiometric kinase assays, percentage of activity at 0.5 μM;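 further: Read-out is ³³P-labelled substrate protein phosphorylated by each kinase, captured on filters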
[3] = target: each individual kinase of the panel (Homo sapiens, UniProt Q15349); experiment: as above
[4] = target: each individual kinase of the panel (Homo sapiens, UniProt O75914); experiment: as above
[5] = target: each individual kinase of the panel (Homo sapiens, UniProt P34947); experiment: as above
[6] = target: each individual kinase of the panel (Homo sapiens, UniProt Q9H2X6); experiment: as above
[7] = target: each individual kinase of the panel (Homo sapiens, UniProt P00533, L858R); experiment: as above
[8] = target: each individual kinase of the panel (Homo sapiens, UniProt Q9HBH9); experiment: as above
[9] = target: each individual kinase of the panel (Homo sapiens, UniProt P00533, L858R/T790M); experiment: as above
[10] = target: each individual kinase of the panel (Homo sapiens, UniProt P24941); experiment: as above
[11] = target: each individual kinase of the panel (Homo sapiens, UniProt Q13554); experiment: as above
[12] = target: each individual kinase of the panel (Homo sapiens, UniProt Q9Y3S1); experiment: as above
[13] = target: each individual kinase of the panel (Homo sapiens, UniProt P00533, L861Q); experiment: as above
[14] = target: each individual kinase of the panel (Homo sapiens, UniProt P06239); experiment: as above
[15] = target: each individual kinase of the panel (Homo sapiens, UniProt O94804); experiment: as above
[16] = CK2 (15 um ATP) IC50 (uM), 15 um ATP, cell-free

COC(=O)c1ccc2c(c1)nc(Nc1ccccc1)c1nc(S(C)(=O)=O)ncc12 [drawing 1570]
IC50 [1, 16]: > 0.75 µM

COC(=O)c1ccc2c(c1)nc(Nc1cccc(Cl)c1)c1ccncc12 [drawing 1568]
IC50 [1, 16]: > 0.75 µM

CNc1ncc2c(n1)c(Nc1ccccc1)nc1cc(C(=O)OC)ccc12 [drawing 1571]
IC50 ([1]; CK2 (15 um ATP) IC50, 15 um ATP, cell-free assay): > 0.75 µM

COC(=O)c1ccc2c(c1)nc(Nc1ccccc1)c1nc(SC)ncc12 [drawing 1569]
IC50 [1, 16]: > 0.75 µM

C#Cc1cccc(Nc2nc3cc(C(=O)O)ccc3c3cncnc23)c1 [drawing 1135]
AXL percentage of activity [2]: 16% | RPS6KA2 percentage of activity [3]: 37% | PAK3 percentage of activity [4]: 21% | GRK5 percentage of activity [5]: 11% | HIPK2 percentage of activity [6]: 89% | EGFR(L858R) percentage of activity [7]: 11% | Mnk2 percentage of activity [8]: 37% | EGFR(T790M, L858R) percentage of activity [9]: −21% | CDK2/cyclin A percentage of activity [10]: 37% | CAMK2B percentage of activity [11]: 11% | WNK2 percentage of activity [12]: 11% | EGFR(L861Q) percentage of activity [13]: 21% | LCK percentage of activity [14]: 37% | LOK percentage of activity [15]: 16%
